Measured values as given in patent US4198415A, “Prolactin inhibiting octahydro pyrazolo[3,4-g]quinolines” (Eli Lilly and Company, priority 1979, dated 1980).

Tests used:
[1] = test system: 6-hydroxydopamine-lesioned rats; assay: turning behavior in 6-hydroxydopamine-lesioned rats (rat turning test, Parkinsonism); details: in vivo, ip, dihydrochloride
Procedure: In this test, nigroneostriatal-lesioned rats are employed, as prepared by the procedure of Ungerstedt and Arbuthnott, Brain Res, 24, 485 (1970). A compound having dopamine agonist activity causes the rats to turn in circles contralateral to the side of the lesion. After a latency period, which varies from compound to compound, the number of turns is counted over a 15-minute period.
The compounds were dissolved in water and the aqueous solution injected into the rat by the intraperitoneal route at dose levels of 1 mg/kg. and 100 mcg/kg.

prolactin = assay: inhibition of prolactin secretion in reserpine-treated male rats (serum prolactin); parameters: species or system rat (Sprague-Dawley); details: rat, in vivo; dihydrochloride
Procedure: Adult male rats of the Sprague-Dawley strain weighing about 200 g. were housed in an air-conditioned room with controlled lighting (lights on 6 a.m.-8 p.m.) and fed lab chow and water ad libitum. Each rat received an intraperitoneal injection of 2.0 mg. of reserpine in aqueous suspension 18 hours before administration of the test drug. The purpose of the reserpine was to keep prolactin levels uniformly elevated. The compounds under test were dissolved in 10 percent ethanol, and were injected intraperitoneally at doses of 50 mcg/kg and 0.5 and 5 mg/kg. Each compound was administered at each dose level to a group of 10 rats, and a control group of 10 intact males received an equivalent amount of 10 percent ethanol. One hour after treatment, all rats were killed by decapitation, and 150 μl aliquots of serum were assayed for prolactin.

With `CCCN1CCC[C@H]2Cc3n[nH]cc3C[C@@H]21` (relative stereo) [trans-dl-5-n-propyl-4,4a,5,6,7,8,8a,9-octahydro-1H and 2H-pyrazolo[3,4-g]quinoline dihydrochloride] the “% of Rats Exhibiting Turning Behavior” value [1] was 100% and 75%, the “Average Number of Turns/rat” value [1] was 80 and 66 and the “Percent Prolactin Inhibition” value (prolactin) was 61 and 91.

Several values for one entry are separate records, joined by “and”; a condition that tells them apart may be missing. Identical values can stand only once. Counter-ions that a name gives are not always drawn.
